The record followed here is PMC6730887 (2019).

The target of the experiment is T1, GST-Glmn (Glomulin) (UniProt Q92990 1-594).
T1 chain: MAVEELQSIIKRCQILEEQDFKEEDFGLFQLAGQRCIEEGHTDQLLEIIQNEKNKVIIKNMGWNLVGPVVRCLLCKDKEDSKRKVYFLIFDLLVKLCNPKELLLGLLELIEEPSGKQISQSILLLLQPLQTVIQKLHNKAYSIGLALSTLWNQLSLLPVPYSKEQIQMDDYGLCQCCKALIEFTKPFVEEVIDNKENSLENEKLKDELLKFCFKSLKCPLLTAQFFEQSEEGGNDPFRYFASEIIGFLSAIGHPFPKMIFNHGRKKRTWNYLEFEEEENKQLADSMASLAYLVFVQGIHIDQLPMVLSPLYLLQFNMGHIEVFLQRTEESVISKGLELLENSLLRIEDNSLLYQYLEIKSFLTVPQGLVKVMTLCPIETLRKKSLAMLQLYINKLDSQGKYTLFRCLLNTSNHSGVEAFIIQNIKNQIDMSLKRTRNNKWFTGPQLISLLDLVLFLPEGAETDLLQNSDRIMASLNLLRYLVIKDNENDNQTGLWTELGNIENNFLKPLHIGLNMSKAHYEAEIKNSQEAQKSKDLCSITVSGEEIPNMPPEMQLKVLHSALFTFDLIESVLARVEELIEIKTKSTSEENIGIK
Description: FRET.

B1: His-FKBP12.6 (natural protein)
chain: MGVEIETISPGDGRTFPKKGQTCVVHYTGMLQNGKKFDSSRDRNKPFKFRIGKQEVIKGFEEGAAQMSLGQRAKLTCTPDVAYGATGHPGVIPPNATLIFDVELLNLE
With B1, the IC50 (as a rule, the midpoint of a concentration-inhibition curve) was found to be 63 nM.
